The subject of data set [1] is rabbit skin. In words: Primary skin irritation study in the rabbit, drug substances, 24 hours exposure. It counts as in vivo. Particulars: for mean score for erythema / mean score for oedema: 0.5 g, read 1, 24, 48 and 72 hours after. The protocol: Primary skin irritation study in the rabbit and test for delayed contact hypersensitivity using the Guinea Pig Maximization Test (performed by Scantox, Denmark).
0.5 g of each test material were moistened with 0.5 ml distilled water and applied on the rabbit. After 24 hours the treated skin was cleaned and after additional 1, 24, 48 and 72 hours the skin reactions were read.

For data set [2] the following is noted: poor metabolizer, after tolterodine 2 mg bid; cited from earlier work.

Consider tolterodine L-tartrate, for which, in data set [1], the “classification as skin irritant” value is reported as “should not be classified as skin irritants”, the “mean score for erythema” value was 0.0 and the “mean score for oedema” value was found to be 0.0.

Regarding “N,N-dilso-propyl-3′-(2-hydroxy-5-methylphenyl)-3-phenylpropanamine [Tolterodine]”, in data set [1], the “classification as skin irritant” value is on record as “should not be classified as skin irritants”, the “mean score for erythema” value is given as 0.1 and the “mean score for oedema” value is recorded as 0.0. Besides, the “average serum concentration (C)” value in data set [2] is “about 10 μg/L”.
